Results from patent publication US8071549B2, “Compounds capable of affecting differentiation, proliferation, regeneration, plasticity and survival cells” (priority 2001, dated 2011).

Chains of the proteins cited; added tags and fusions are not shown. Residues count along the entry.
UniProt P11362, 22-822: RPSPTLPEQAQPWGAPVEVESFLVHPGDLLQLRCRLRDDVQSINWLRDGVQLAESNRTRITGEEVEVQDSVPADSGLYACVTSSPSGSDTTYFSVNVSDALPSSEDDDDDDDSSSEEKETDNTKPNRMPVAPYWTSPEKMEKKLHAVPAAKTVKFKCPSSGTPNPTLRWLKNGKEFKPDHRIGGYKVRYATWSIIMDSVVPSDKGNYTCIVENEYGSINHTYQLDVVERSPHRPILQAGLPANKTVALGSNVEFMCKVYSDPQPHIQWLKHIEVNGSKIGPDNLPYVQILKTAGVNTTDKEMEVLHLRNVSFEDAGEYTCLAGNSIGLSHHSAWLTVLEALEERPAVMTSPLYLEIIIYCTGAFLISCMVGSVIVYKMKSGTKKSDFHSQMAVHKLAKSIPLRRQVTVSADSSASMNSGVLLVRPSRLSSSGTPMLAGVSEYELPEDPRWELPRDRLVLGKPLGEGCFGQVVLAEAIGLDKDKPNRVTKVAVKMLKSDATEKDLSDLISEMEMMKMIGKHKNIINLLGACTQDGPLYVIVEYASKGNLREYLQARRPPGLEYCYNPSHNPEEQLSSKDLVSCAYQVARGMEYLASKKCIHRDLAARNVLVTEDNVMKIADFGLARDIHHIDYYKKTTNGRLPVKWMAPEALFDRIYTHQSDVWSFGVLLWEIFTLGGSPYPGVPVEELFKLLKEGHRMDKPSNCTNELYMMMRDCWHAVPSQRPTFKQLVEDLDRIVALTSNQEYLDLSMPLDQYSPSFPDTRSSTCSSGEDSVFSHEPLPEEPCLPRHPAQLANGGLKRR

Key:
hippocampal neurons = experiment: Neurite outgrowth from hippocampal neurons
FGF-receptor 1 = biological target: T1, FGF-receptor 1 (Homo sapiens, UniProt P11362); experiment: FGF-receptor phosphorylation in transfected HEK293 cells (immunoblotting); format: cell-based; conditions: 5 μM, 20 min, HEK293 cells with His-tagged FGF-receptor 1
T1 construct: expressed in transfected cells; host or cells: HEK293, transient, PcDNA3.1(+) plasmid
Protocol: Cells were grown in DMEM 1965 with 10% FCS, 100 U/ml penicillin, 100 μg/ml streptomycin and 58.4 g/l Glutamax. ˜0.8*10^6 cells were plated in 60 mm plates and cultured for 24 hrs before being transfected using LipofectAMIN PLUS™ reagent kit according to manufacturers instructions (Gibco BRL) with 0.2 μg PcDNA3.1(+) plasmid encoding a his-tagged (C-terminal hexa-histidine) version of FGFR-1. Cells were grown another 24 hrs in full medium, and then shifted to starving media (DMEM 1965 with 0.5% FCS) overnight.
FGFR-1 transfected cells, incubated with 50 μg/ml NCAM derived recombinant fIII.2 or FG-loop for 20 minutes or non-stimulated, were lysed in 8M urea in PBS with 1 mM orthovanadate. The FGFR-1 was purified from total lysate via the His-tag moiety on an IMAC column. […] Samples were added SDS-PAGE sample buffer and analysed by western blotting using anti-pentahis ab (#34660 Qiagen) or anti-phosphotyrosine ab (PY20) (#11120 Transduction Laboratories). Bands were visualised by chemilumiscense and density was measured using a GeneGnome from SynGene with a 16 bit camera.
Therefore, HEK293 cells were grown for 24 h on plastic plates, and subsequently transfected with a His-tagged version of the FGF-receptor 1 and cultured for another 24 h. […] The purified FGF-receptor 1 was then analyzed by immunoblotting using antibodies either to the His-tag or phosphotyrosine. […]

[1] = tested on: third Ig module of the FGF-receptor; format: binding; conditions: 0.05 mM 15N-labeled second F3 module + 1 mM third Ig module of the FGF-receptor
From the text: (§1) This expression system was selected because P. pastoris is capable of protein folding and processing similar to higher eukaryotes, and the protein secreted into the medium can be purified easily.

[2] = tested on: second Ig module of the FGF-receptor; format: binding; conditions: 0.05 mM 15N-labeled second F3 module + 1 mM second Ig module of the FGF-receptor
From the text: as §1

B1: second F3 module of NCAM: recombinant protein corresponding to aminoacids 612-705 of rat NCAM (swissprot p13596), produced in yeast P. pastoris (protein)
chain: AGPSAPKLEGQMGEDGNSIKVNLIKQDDGGSPIRHYLVKYRALASEWKPEIRLPSGSDHVMLKSLDWNAEYEVYVVAENQQGKSKAAHFVFRTSAQ
inhibition of induced neurite outgrowth by an antibody against the FGF-receptor (hippocampal neurons; 5 μM second F3 module or 50 μM FG loop peptide): complete inhibition | length of neurites per cell compared to control, non-stimulated neurons (hippocampal neurons; 5 μM, 24 h): substantially increased | neurite outgrowth in dose-response study (hippocampal neurons; bell-shaped dose-response curve, 24 h): induced neurite outgrowth | increase of FGF-receptor phosphorylation compared to control cells (FGF-receptor 1): approx. 150% | changes of 1H and 15N chemical shifts of residues of the F3 module [1]: significant perturbation | changes of the chemical shifts of the F3 module [2]: No significant changes of the chemical shifts
